In patent publication US12409179B2, “Pharmaceutical combination of pimozide and methotrexate and use thereof” (GENEROS BIOPHARMA LTD., priority 2019, dated 2025):

System: adjuvant-induced arthritis in rats
Assay: Embodiment 3: oral Nib1 and methotrexate in adjuvant-induced arthritis in rats (joint score, paw volume, AUC)
Format: in vivo, Lewis rat
Settings: day 22, Tofacitinib 5 mpk, MTX 0.05 mpk, Nib1 1 mpk, Nib1 1 mpk + MTX 0.05 mpk

## CN(Cc1cnc2nc(N)nc(N)c2n1)c1ccc(C(=O)N[C@@H](CCC(=O)O)C(=O)O)cc1 [MTX, Methotrexate]
  volume of the right hind foot, Average value: 3.43 mL
